SMILES strings stand for the structures.

Protein sequences, listed by entry. Tags and fused reporters are not part of them. Lines headed by an entry give the natural chain unless they say otherwise; changes in a name come on top.
UniProt O77636: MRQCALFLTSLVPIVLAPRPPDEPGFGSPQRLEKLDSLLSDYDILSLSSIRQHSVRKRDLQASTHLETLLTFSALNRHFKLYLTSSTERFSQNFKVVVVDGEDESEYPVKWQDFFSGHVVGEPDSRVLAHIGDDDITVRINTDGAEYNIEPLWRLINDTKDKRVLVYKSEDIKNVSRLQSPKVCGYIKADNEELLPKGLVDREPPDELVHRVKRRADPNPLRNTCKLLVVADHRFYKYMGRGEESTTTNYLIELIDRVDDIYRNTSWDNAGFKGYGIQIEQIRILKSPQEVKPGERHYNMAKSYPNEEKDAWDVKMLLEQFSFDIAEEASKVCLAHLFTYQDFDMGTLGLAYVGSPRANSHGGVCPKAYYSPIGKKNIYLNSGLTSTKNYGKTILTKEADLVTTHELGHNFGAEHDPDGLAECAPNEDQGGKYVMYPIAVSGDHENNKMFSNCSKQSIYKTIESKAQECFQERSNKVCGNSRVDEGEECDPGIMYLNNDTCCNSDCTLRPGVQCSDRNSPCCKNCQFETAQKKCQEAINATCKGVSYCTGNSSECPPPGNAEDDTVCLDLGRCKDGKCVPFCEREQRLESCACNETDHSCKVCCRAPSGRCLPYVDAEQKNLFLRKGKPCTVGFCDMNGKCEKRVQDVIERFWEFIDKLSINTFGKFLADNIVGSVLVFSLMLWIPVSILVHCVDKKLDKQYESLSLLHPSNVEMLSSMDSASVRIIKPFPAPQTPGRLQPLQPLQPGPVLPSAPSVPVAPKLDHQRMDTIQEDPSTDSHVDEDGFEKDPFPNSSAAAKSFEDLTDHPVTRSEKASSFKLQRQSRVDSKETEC

In this assay the target is Disintegrin and metalloproteinase domain-containing protein 17 (Sus scrofa, UniProt O77636). Briefly: Inhibition of porcine Tumor necrosis factor alpha converting enzyme.

As usually defined, the IC50 is the concentration that gives 50% inhibition. Low readings indicate greater potency in that assay, high ones weaker potency in that assay. Consider `COc1ccc(S(=O)(=O)N(C)c2c(C)cc(Br)cc2C(=O)NO)cc1`, for which the IC50 was 32 nM.
`CC#CCOc1ccc(S(=O)(=O)N(C)c2c(C)cc(Br)cc2C(=O)NO)cc1` had a 50% inhibitory concentration (IC50) of 16 nM. This IC50 is about 2-fold lower than that of the compound before.

Values taken from ChEMBL document CHEMBL1135288, “Anthranilate sulfonamide hydroxamate TACE inhibitors. Part 1: Structure-based design of novel acetylenic P1' groups” (Bioorg Med Chem Lett, 2002).
